Biological target: Replicase polyprotein 1ab (Severe acute respiratory syndrome coronavirus 2, UniProt P0DTD1)

| SMILES | IC50 [nM] |
| --- | --- |
| CC(C)Cn1c(Cc2ccccc2)nc2cc(O)c(O)c(O)c2c1=O | 466 |
| O=c1[nH]c(-c2ccccc2F)nc2cc(O)c(O)c(O)c12 | 1440 |
| O=c1[nH]c(C2CC2)nc2cc(O)c(O)c(O)c12 | 5490 |
| O=c1[nH]c(-c2ccccc2)nc2cc(O)c(O)c(O)c12 | 1370 |
| O=c1c2c(O)c(O)c(O)cc2nc(-c2ccccc2)n1-c1cn[nH]c1 | 390 |
| CC(C)Cc1nc2cc(O)c(O)c(O)c2c(=O)n1-c1ccc(Br)cc1F | 284 |
| O=c1c2c(O)c(O)c(O)cc2nc(-c2ccccc2)n1-c1ccccc1F | 205 |
| O=c1[nH]c(-c2cccc(F)c2F)nc2cc(O)c(O)c(O)c12 | 1130 |
| CC(C)Cc1nc2cc(O)c(O)c(O)c2c(=O)n1-c1ccccc1F | 239 |
| O=c1[nH]c(-c2ccccc2[N+](=O)[O-])nc2cc(O)c(O)c(O)c12 | 10600 |
| CC(C)Cc1nc2cc(O)c(O)c(O)c2c(=O)[nH]1 | 385 |
| O=c1[nH]c(/C=C/c2ccccc2)nc2cc(O)c(O)c(O)c12 | 2870 |
| O=c1[nH]c(-c2ccccc2O)nc2cc(O)c(O)c(O)c12 | 18300 |
| Cc1cc(-n2c(CC(C)C)nc3cc(O)c(O)c(O)c3c2=O)ccc1F | 100 |
| O=c1c2c(O)c(O)c(O)cc2nc(-c2ccccc2)n1C1CCCC1 | 124 |
| O=c1[nH]c(-c2ccc(F)c(F)c2)nc2cc(O)c(O)c(O)c12 | 2720 |
| CC(C)Cc1nc2cc(O)c(O)c(O)c2c(=O)n1-c1ccccc1 | 107 |
| CC(C)(C)NC(=O)Cn1c(-c2ccccc2)nc2cc(O)c(O)c(O)c2c1=O | 949 |
| O=c1[nH]c(-c2ccccc2C(F)(F)F)nc2cc(O)c(O)c(O)c12 | 1480 |
| CC(C)Cn1c(C(C)c2ccccc2)nc2cc(O)c(O)c(O)c2c1=O (stereo unspecified) | 692 |
| O=c1[nH]c(-c2ccc(F)cc2)nc2cc(O)c(O)c(O)c12 | 12800 |

| SMILES | IC50 [nM] |
| --- | --- |
| CC(c1ccccc1)c1nc2cc(O)c(O)c(O)c2c(=O)n1-c1ccccc1 (stereo unspecified) | 477 |
| CC(c1ccccc1)c1nc2cc(O)c(O)c(O)c2c(=O)n1-c1ccccc1F (stereo unspecified) | 290 |
| CCC(c1ccccc1)c1nc2cc(O)c(O)c(O)c2c(=O)[nH]1 (stereo unspecified) | 210 |
| O=c1[nH]c(C2CCCCC2)nc2cc(O)c(O)c(O)c12 | 1370 |
| O=c1[nH]c(C2CCCC2)nc2cc(O)c(O)c(O)c12 | 539 |
| CC(c1ccccc1)c1nc2cc(O)c(O)c(O)c2c(=O)n1-c1ccc(Br)cc1F (stereo unspecified) | 386 |
| Cc1ccc(-c2nc3cc(O)c(O)c(O)c3c(=O)[nH]2)cc1 | 1870 |
| O=c1[nH]c(-c2ccccc2Br)nc2cc(O)c(O)c(O)c12 | 554 |
| O=c1[nH]c(Cc2ccccc2)nc2cc(O)c(O)c(O)c12 | 327 |
| O=c1[nH]c(-c2ccccc2OC(F)(F)F)nc2cc(O)c(O)c(O)c12 | 1800 |
| O=c1[nH]c(-c2cccc([N+](=O)[O-])c2)nc2cc(O)c(O)c(O)c12 | 11200 |
| O=c1c2c(O)c(O)c(O)cc2nc(-c2ccccc2)n1-c1ccc(O)cc1 | 271 |
| O=c1c2c(O)c(O)c(O)cc2nc(-c2ccccc2)n1CCO | 1360 |
| O=c1[nH]c(-c2ccccc2Cl)nc2cc(O)c(O)c(O)c12 | 435 |
| O=c1c2c(O)c(O)c(O)cc2nc(-c2ccccc2)n1-c1ccc(-c2ccccc2)cc1 | 1480 |
| O=c1c2c(O)c(O)c(O)cc2nc(Cc2ccccc2)n1-c1ccccc1 | 131 |
| O=c1[nH]c(-c2cccc(Cl)c2)nc2cc(O)c(O)c(O)c12 | 6960 |
| O=c1c2c(O)c(O)c(O)cc2nc(-c2ccccc2)n1-c1cccnc1 | 212 |
| CC(C)(C)c1cccc(-c2nc3cc(O)c(O)c(O)c3c(=O)[nH]2)c1 | 8420 |
| Cc1cc(-n2c(-c3ccccc3)nc3cc(O)c(O)c(O)c3c2=O)ccc1F | 117 |
| CC(C)c1cccc(-c2nc3cc(O)c(O)c(O)c3c(=O)[nH]2)c1 | 7640 |

| SMILES | IC50 [nM] |
| --- | --- |
| O=c1c2c(O)c(O)c(O)cc2nc(-c2ccccc2)n1-c1ccc(Br)cc1F | 207 |
| O=c1c2c(O)c(O)c(O)cc2nc(-c2ccccc2)n1C1CCCCC1 | 274 |
| O=c1c2c(O)c(O)c(O)cc2nc(-c2ccccc2)n1-c1ccccc1 | 83 |
| CC(C)c1nc2cc(O)c(O)c(O)c2c(=O)[nH]1 | 4940 |
| Cc1cc(-n2c(Cc3ccccc3)nc3cc(O)c(O)c(O)c3c2=O)ccc1F | 502 |
| O=c1[nH]c(-c2cccc(C(F)(F)F)c2)nc2cc(O)c(O)c(O)c12 | 10500 |
| O=c1c2c(O)c(O)c(O)cc2nc(-c2ccccc2)n1C1CC1 | 290 |
| O=c1[nH]c(-c2ccc3ccccc3c2)nc2cc(O)c(O)c(O)c12 | 3570 |
| CC(C)C(c1ccccc1)c1nc2cc(O)c(O)c(O)c2c(=O)[nH]1 (stereo unspecified) | 390 |
| O=c1[nH]c(-c2ccc(Cl)cc2)nc2cc(O)c(O)c(O)c12 | 7710 |
| O=c1[nH]c(-c2ccc(Br)cc2)nc2cc(O)c(O)c(O)c12 | 9800 |
| CC(C)Cn1c(-c2ccccc2)nc2cc(O)c(O)c(O)c2c1=O | 124 |
| O=c1[nH]c(-c2ccncc2)nc2cc(O)c(O)c(O)c12 | 15200 |
| CC(c1ccccc1)c1nc2cc(O)c(O)c(O)c2c(=O)[nH]1 (stereo unspecified) | 174 |
| O=c1[nH]c(-c2cccc(F)c2)nc2cc(O)c(O)c(O)c12 | 5130 |
| Cc1cccc(-c2nc3cc(O)c(O)c(O)c3c(=O)[nH]2)c1 | 2280 |
| O=c1[nH]c(-c2ccc(F)cc2F)nc2cc(O)c(O)c(O)c12 | 1540 |
| Cc1ccccc1-c1nc2cc(O)c(O)c(O)c2c(=O)[nH]1 | 365 |
| O=c1c2c(O)c(O)c(O)cc2nc(-c2ccccc2)n1-c1cccc(F)c1 | 236 |
